# Sampled rows, rich in hits. Any-hit rate of the full collection: about 1.3%.
# ALOX12 inh: inhibitors of human 12S-lipoxygenase ALOX12; purified 12hLO, xylenol orange hydroperoxide absorbance; Potency, µM (highest dose often 108 µM), for the others: top-dose activity change, negative = inhibition, most hits filed as inhibitors; 1.1% of 580,000 active; AID 1671190; further: potency means the concentration at half of the fitted maximal effect; on the % scale 0 is the no-effect control and ±100 the full control effect
#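 Purified human 12hLO at 150 nM in 25 mM Hepes, 0.01% Triton X-100, pH 7.0, preincubated 15 min at room temperature with compound. Reaction started with 40 uM arachidonic acid, 30 min at room temperature. Hydroperoxide measured by Fe-xylenol orange, 573/405 nm absorbance ratio.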
# ERG-DNA inh: blocks human ERG Ets domain binding to DNA; P11308; fluorescence polarization, His-ERG Ets domain / labelled DNA; Potency, µM (series often up to 76.9 µM), without a hit: at the highest dose FP activity, negative = inhibition, hits mostly inhibitors; 0.028% of 370,000 active; AID 624246; active means well fitted inhibition curve with a large enough effect in the polarisation, with a control signal flat; inconclusive means small, poorly fitted or top-dose-only effect, or effect the other way, or a change in a side signal; inactive means no such curve, though single readings can be large or run the other way; the % refers to the polarisation;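 further: polarization taken with two DNA probes labelled with fluorescein and Texas red; potency means the concentration at half of the fitted maximal effect; % of control where 0% means no effect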
#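 His-tagged ERG Ets domain (1 uM in the protein solution; 300mM KCl, 50mM Tris-HCl, 1mM EDTA, 1mM DTT, pH 7.5) received compound, then a probe mix of 5 nM fluorescein-DNA and 100nM Texas-615-DNA. Fluorescence polarization was read for both dyes.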
# Giardia killer: kills Giardia lamblia; Giardia lamblia trophozoite viability; activity change, % at 7.66 µM, hits read low; 0.15% of 340,000 active; AID 540267; in the data active means activity change below about -80%; inconclusive means between about -30% and that limit;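 further: parasites exposed to compound for two days anaerobically before the ATP read; on the % scale 0 is the no-effect control and ±100 the full control effect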
#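 Luminescence from cellular ATP indicates surviving trophozoites (100 cells/well) following 48 hrs anaerobic compound treatment at 37 deg C; signal develops 15-30 min at room temperature.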
# PTHR1 ag: agonists of human PTHR1 parathyroid hormone receptor; HEK293 GP2 PTHR1 cells, GloSensor cAMP luminescence, 1 h; 0.075% of 410,000 active; Q03431; Potency, µM (highest dose often 115 µM), for the others: at the highest dose activation, actives largely listed as activators; further: potency means the concentration at half of the fitted maximal effect; nearly all actives have a fitted effect of over 55% in size
#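 HEK-293-derived GP2 cells expressing PTHR1 and a GloSensor cAMP reporter, 3,000/well, plated overnight, given luciferin plus IBMX (each 0.5 mM as added) for 1 h at 37 °C, then compound for 1 h at 37 °C. Luminescence was read after 15 min at room temperature.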
# PINK1 modulator: PINK1 expression modulation; PINK1 immunofluorescence, high-content cytometry, 24 h; Potency, µM (top dose mostly 76.6 µM), without a hit: top-dose activation (PINK1 increase), usual class: activators; 0.2% of 410,000 active; active means well fitted activation curve with a large enough effect; inconclusive means small, poorly fitted or top-dose-only effect; cell line not stated here; further: potency means the concentration at half of the fitted maximal effect; % of control where 0% means no effect; nearly all actives have a fitted effect of over 65% in size
#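 Stable cell line, 250 cells/well, 12 h attachment; compounds pinned at 5 concentrations, 24 h; CCCP control. Fixed with nuclear dye, primary antibodies 12 h at 10 degrees C, secondary plus cell stain; laser-scanning cytometer read.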
# miR-21 FLuc: raises the signal of a miR-21 reporter; HeLa miR-21 FLuc reporter, luciferase, 48 h; Potency, µM (highest dose often 38.3 µM), for inactives: at the highest dose reporter change, positive = more light; 340,000 tested, under 10 active; active = well fitted rising curve with a large enough effect; inconclusive = small, poorly fitted or top-dose-only effect; inactive = no such curve, though single readings can be large or run the other way;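 also: % of control where 0% means no effect; miR-21 action dims this reporter so a rising signal means less miR-21 action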
#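 Using DMEM plus 10% FBS, HeLa miR-21-FLuc cells are incubated with test compounds (final up to about 40uM) for 48 hours; firefly luciferase signal is then imaged following reagent-mediated lysis.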
# An asterisk follows results filed as active; i = inactive; ? = inconclusive; · = not tested or not shown; ! = a repeat was not active; [ ] = remark or other dose. Unless noted, the call rests on the fitted dose curve; in most records, active means well fitted curve in the direction sought with a large enough effect; inconclusive means small, poorly fitted or top-dose-only effect, or another doubt; inactive means no such curve, though single readings can be large; an effect the other way counts as inactive or inconclusive.
SMILES,ALOX12 inh,ERG-DNA inh,Giardia killer,PTHR1 ag,PINK1 modulator,miR-21 FLuc
CCOc1ccc2c(c1)c(N=NC(=N)N)c(O)n2C,-10%,-4%,0,-21%,5%,12%
CCOc1ccc2c(c1)c(N=NC(N)=S)c(O)n2C,5µM*,-12%,-3,-6%,1%,-10%
O=C(N/N=C/c1ccc(-c2ccc(Cl)c(C(=O)O)c2)o1)c1cc2c(ccc3ccccc32)o1,40µM*,8%,-23,-10%,3%,-9%
Cc1ccc(-c2ccc(/C=N\NC(=O)c3cc4c(ccc5ccccc54)o3)o2)cc1[N+](=O)[O-],483%,1%,-1,-2%[57.5 µM],6%,-1%
CCOC(=O)C1=C(CN(CC)Cc2ccccc2)NC(=O)NC1c1ccc(Cl)cc1 (stereo not given),22µM*!,-4%,·,-25%,?,25%
CCOC(=O)C1=C(CN(CC)Cc2ccccc2)NC(=O)NC1c1ccc(OC)cc1 (stereo not given),?,2%,·,-17%,-2%,-5%
CCOC(=O)C1=C(CN2CCCCC2)NC(=O)NC1c1ccc(OC)cc1 (stereo not given),45µM*,3%,·,-21%,1%,-4%
c1ccc(CN2CCC(N3CC(OCC4CC4)C34CCCCC4)CC2)nc1 (stereo not given),110%,·,·,·,·,·
CCN(CC(=O)Nc1ccc(OC)cc1)C(=O)c1ccc2ccccc2c1,?,-2%,-4,10%,2%,·
CCN(CC(=O)Nc1ccc(OC)cc1)C(=O)c1ccc2c(c1)NC(=O)CS2,8.9µM*,12%,30,-6%,-2%,·
O=C(NCCN1CCC(n2c(=O)[nH]c3ccccc32)CC1)c1cccc(F)c1,45µM*,·,·,-14%,0%,·
O=C(NCCN1CCC(n2c(=O)[nH]c3ccccc32)CC1)c1cc(F)cc(F)c1,?,·,·,-10%,1%,·
CCNc1ncc2nc(CCc3ccccc3)c(=O)n(Cc3ccc(F)cc3)c2n1,?,·,·,·,45µM*,·
CCNc1ncc2nc(-c3ccccc3)c(=O)n(Cc3ccc(F)cc3)c2n1,0%,·,·,·,5%,·
CCNc1ncc2nc(-c3cc(F)cc(F)c3)c(=O)n(CCc3ccccc3)c2n1,11µM*,·,·,·,?,·

# Full records as entered above. Order of screens: ALOX12 inh	ERG-DNA inh	Giardia killer	PTHR1 ag	PINK1 modulator	miR-21 FLuc
# CCNc1ncc2nc(-c3cc(F)cc(F)c3)c(=O)n(CCc3ccccc3)c2n1 as listed: 11µM*	·	·	·	?	·
# O=C(NCCN1CCC(n2c(=O)[nH]c3ccccc32)CC1)c1cccc(F)c1 as listed: 45µM*	·	·	-14%	0%	·

# More entries follow:
SMILES,ALOX12 inh,ERG-DNA inh,Giardia killer,PTHR1 ag,PINK1 modulator,miR-21 FLuc
CCNc1ncc2nc(-c3ccc(OC)cc3)c(=O)n(CCc3ccccc3)c2n1,13%,·,·,·,4%,·
COc1ccc(Cl)c(Cn2c(NCCCO)nc3c2c(=O)n(C)c(=O)n3C)c1,62%,-7%,4,i,-1%,-11%
CCc1ccc(N2NC(=O)/C(=C/C=C/c3ccco3)C2=O)cc1,28µM*,2%,-16,-10%,-1%,-6%
Cn1c(CC(=O)Nc2ccc(Cl)c(Cl)c2)n[nH]c1=S,?,-7%,-2,6%,0%,-5%
COc1ccc(Cc2n[nH]c(=S)n2NC(=O)Nc2ccc(Cl)c(Cl)c2)cc1,?,-15%,-19,i,40µM*,-12%
CN(C)C=Nc1c(Br)cc(Br)c2nonc12,0%,1%,-28,i,11µM*,-19%
CN(C)C=Nc1nonc1-c1ccccc1,41%,4%,1,i,1%,-9%
CCOC(=O)c1ccc(NC(=O)Cn2nc(SC)c(S(=O)(=O)c3ccc(Cl)cc3)c2N)cc1,?,7%,·,-95%,18µM*,?
CCSc1nn(CC(=O)Nc2ccc(C(=O)OC)cc2)c(N)c1S(=O)(=O)c1ccc(C)cc1,-29%,3%,·,i,0%,20%
O=C(CN1CCN(c2ccc(O)cc2)CC1)NC(c1ccccc1)c1ccccc1,22µM*,1%,-3,?,-1%,-9%
COc1ccc(CCC(=O)N2CCC3(CC2)NC(=O)N(c2cccc(Cl)c2)N3)cc1,2µM*,·,·,·,·,·
COc1ccccc1CCC(=O)N1CCC2(CC1)NC(=O)N(c1ccccc1)N2,2µM*,·,·,·,·,·
COc1cccc(C(=O)N2CCC3(CC2)NC(=O)N(c2ccccc2)N3)c1,6.3µM*,·,·,·,·,·

# By substructure, those above containing a furan ring, fused or not (three)
SMILES,ALOX12 inh,ERG-DNA inh,Giardia killer,PTHR1 ag,PINK1 modulator,miR-21 FLuc
O=C(N/N=C/c1ccc(-c2ccc(Cl)c(C(=O)O)c2)o1)c1cc2c(ccc3ccccc32)o1,40µM*,8%,-23,-10%,3%,-9%
Cc1ccc(-c2ccc(/C=N\NC(=O)c3cc4c(ccc5ccccc54)o3)o2)cc1[N+](=O)[O-],483%,1%,-1,-2%[57.5 µM],6%,-1%
CCc1ccc(N2NC(=O)/C(=C/C=C/c3ccco3)C2=O)cc1,28µM*,2%,-16,-10%,-1%,-6%
